# Laboratory results published in patent US20230390279A1, “COMPOSITION AND METHOD FOR TREATING CANCER” (NOVMETAPHARMA CO., LTD., priority 2022, published 2023).
# Legend:
# [1] = test system: sorafenib-resistant liver cancer cell line Huh7-SR; settings: sorafenib 10 μM and DN200434 12 μM, 24 hours, FIG. 3A
# [2] = test system: sorafenib-resistant liver cancer cell line SK-Hep-R; settings: sorafenib 10 μM and DN200434 12 μM, 24 hours, FIG. 3B
compound,measurement,setting,value
"CC(C)N1CCN(c2ccc(/C(=C(/CCCO)c3ccccc3)c3ccc(O)cc3)cc2)CC1 [DN434, (E)-5-(4-hydroxyphenyl)-5-(4-(4-isopropylpiperazin-1-yl)phenyl)-4-phenylpent-4-en-1-ol]",ROS,[1],increase in ROS
same,ROS,[2],increase in ROS
